Reference: PMC3794980, “Identification of Conserved and HLA Promiscuous DENV3 T-Cell Epitopes” (PLoS Neglected Tropical Diseases, 2013)
Where two headings read alike, the source gives them in different places.

Tests used:
Assay in all cases: biochemical
Assay type in all cases: binding
DRB1*0802 = DRB1*0802 (Homo sapiens, UniProt P01903+P01911, A100R/A103L/A169T/F76Y/H45Y/I96F/K41T/L162R/M171V/P40S/Q125H/Q178H/Q39Y/Q99D/R218S/R42G/S66Y/V115G/W38E)
DRB1*0901 = DRB1*0901 (Homo sapiens, UniProt P01903+P01911, A100R/A103E/D57H/D86V/F55Y/F60I/F76Y/I96F/K127E/L162R/M171V/P40D/Q125H/Q99R/R33Q/R42F/S133A/S66N/T210M/V115G/W38K/Y107V/Y59G/Y89S)
DRB1*0101 = DRB1*0101 (Homo sapiens, UniProt P01903+P01911, A100R/D57E/F55L/F60I/F76Y/I96L/L162R/M171V/P40L/Q125E/R42F/V115G/Y59C)
DRB1*0701 = DRB1*0701 (Homo sapiens, UniProt P01903+P01911, A100R/A102G/A103Q/D57E/D86V/E43K/F76Y/K127E/L162R/M171V/P40G/Q125H/Q99D/R33Q/R42Y/R54Q/S133A/S66F/T210M/V115G/Y107V/Y59L/Y89S)
DRB1*1302 = DRB1*1302 (Homo sapiens, UniProt P01903+P01911, A100E/A169T/K41T/L162R/M171V/P40S/Q125H/Q178H/Q39Y/Q99D/R42S/S66N/T262R/V115G/W38E/Y61H)
DRB1*1501 = DRB1*1501 (Homo sapiens, UniProt P01903+P01911)
DRB1*1101 = DRB1*1101 (Homo sapiens, UniProt P01903+P01911, A100R/A169T/A87E/I96F/K41T/L162R/M171V/P40S/Q125H/Q178H/Q39Y/Q99D/R42S/S66Y/T262R/V115G/W38E)
DRB1*0404 = DRB1*0404 (Homo sapiens, UniProt P01903+P01911, A100R/A169T/F76Y/I96L/K127E/L162R/M171V/N62H/P40V/Q125Y/R42H/S133A/S149N/S66Y/V209L/W38E)
DRB1*0405 = DRB1*0405 (Homo sapiens, UniProt P01903+P01911, A100R/A169T/D86S/F76Y/I96L/K127E/L162R/M171V/N62H/P40V/Q125Y/R42H/S133A/S149N/S66Y/V115G/V209L/W38E)
DRB1*0401 = DRB1*0401 (Homo sapiens, UniProt P01903+P01911, A100K/A169T/F76Y/I96L/K127E/L162R/M171V/N62H/P40V/Q125Y/R42H/S133A/S149N/S66Y/V115G/V209L/W38E)
DRB1*0301 = DRB1*0301 (Homo sapiens, UniProt P01903+P01911, A100K/A102G/A103R/A169T/F55Y/I96L/K41T/L162R/M171V/P40S/Q125H/Q178H/Q39Y/R42S/S66N/T106N/T262R/W38E/Y61H)
[1] = competitive inhibition of radiolabeled standard peptide, '-' distinct from ND, read-out: Binding Affinity (nM) DRB1*0901
[2] = competitive inhibition of radiolabeled standard peptide, '-' distinct from ND, read-out: Binding Affinity (nM) DRB1*1302
[3] = read-out: Binding Affinity (nM) DRB1*1101
[4] = read-out: Binding Affinity (nM) DRB1*0404
[5] = read-out: Binding Affinity (nM) DRB1*0802

| SMILES | IC50 (DRB1*0802) | IC50 (DRB1*0901; [1]) | IC50 (DRB1*0101) | IC50 (DRB1*0701) | IC50 (DRB1*1302; [2]) | IC50 (DRB1*1501) | IC50 (DRB1*1101; [3]) | IC50 (DRB1*0404) | IC50 (DRB1*0405) | IC50 (DRB1*0401) | IC50 (DRB1*0301) | IC50 (DRB1*0404; [4]) | IC50 (DRB1*0802; [5]) | IC50 (DRB1*0901) | IC50 (DRB1*1302) | IC50 (DRB1*1101) |
| --- | --- | --- | --- | --- | --- | --- | --- | --- | --- | --- | --- | --- | --- | --- | --- | --- |
| CC[C@H](C)[C@H](NC(=O)[C@H](CC(C)C)NC(=O)[C@H](CCCCN)NC(=O)CNC(=O)[C@H](CO)NC(=O)[C@@H](NC(=O)[C@@H](NC(=O)[C@@H](NC(=O)[C@@H](NC(=O)[C@H](CCCNC(=N)N)NC(=O)[C@H](CC(C)C)NC(=O)[C@@H](N)CO)[C@@H](C)O)[C@@H](C)O)[C@@H](C)O)C(C)C)C(=O)N[C@@H](Cc1c[nH]cn1)C(=O)N[C@@H](CCC(=O)O)C(=O)N[C@@H](Cc1c[nH]c2ccccc12)C(=O)O [NS1 297-311] | 561 nM | 2310 nM | 0.228 µM | 0.262 µM | 2410 nM | 0.736 µM | > 20000 nM | 15500 nM | 15.2 µM | 0.484 µM | 2.42 µM | – | – | – | – | – |
| CC[C@H](C)[C@H](NC(=O)[C@H](C)NC(=O)CNC(=O)[C@@H](NC(=O)[C@H](CCC(=O)O)NC(=O)CN)[C@@H](C)CC)C(=O)N[C@@H](C)C(=O)N[C@@H](CC(C)C)C(=O)N[C@@H](CC(=O)O)C(=O)N[C@@H](Cc1ccccc1)C(=O)N[C@@H](CCCCN)C(=O)N1CCC[C@H]1C(=O)NCC(=O)N[C@H](C(=O)N[C@@H](CO)C(=O)O)[C@@H](C)O [NS3 121-135] | 3610 nM | 9790 nM | 3.96 µM | 2.3 µM | 2700 nM | 14.4 µM | > 20000 nM | – | 17.5 µM | 7.86 µM | 0.0086 µM | > 20000 nM | – | – | – | – |
| CC[C@H](C)[C@H](NC(=O)[C@@H]1CCCN1C(=O)[C@H](CO)NC(=O)CNC(=O)[C@H](CO)NC(=O)[C@@H](NC(=O)CNC(=O)[C@@H]1CCCN1C(=O)[C@H](CCCCN)NC(=O)[C@H](Cc1ccccc1)NC(=O)[C@H](CC(=O)O)NC(=O)[C@H](CC(C)C)NC(=O)[C@H](C)NC(=O)[C@@H](NC(=O)[C@H](C)N)[C@@H](C)CC)[C@@H](C)O)C(=O)O [NS3 125-139] | – | – | 3.33 µM | 2.12 µM | – | 15.6 µM | > 20000 nM | 16300 nM | 13.1 µM | 3.85 µM | 0.047 µM | – | > 20000 nM | 2490 nM | 5440 nM | – |
| CC(C)C[C@H](NC(=O)[C@H](CCCCN)NC(=O)[C@@H](NC(=O)[C@H](CCCCN)NC(=O)[C@H](CCC(N)=O)NC(=O)[C@H](Cc1ccc(O)cc1)NC(=O)[C@H](CCC(=O)O)NC(=O)[C@@H](NC(=O)[C@H](CC(=O)O)NC(=O)[C@H](Cc1ccccc1)NC(=O)[C@@H](NC(=O)[C@@H](N)CCCCN)[C@@H](C)O)[C@@H](C)O)[C@@H](C)O)C(=O)N[C@@H](CC(N)=O)C(=O)N[C@@H](CC(=O)O)C(=O)N[C@@H](Cc1c[nH]c2ccccc12)C(=O)O [NS3 389-403] | – | – | 2.28 µM | 1.56 µM | – | 6.12 µM | – | – | 15.2 µM | 11.7 µM | 3.18 µM | > 20000 nM | > 20000 nM | 15600 nM | 16400 nM | 676 nM |
